The source of these data is patent US5026858A, “Piperidine derivative” (Walton S.A., priority 1976, dated 1991).

The chains behind the UniProt entries cited, without tags or fusion partners.
UniProt P61169, whole entry: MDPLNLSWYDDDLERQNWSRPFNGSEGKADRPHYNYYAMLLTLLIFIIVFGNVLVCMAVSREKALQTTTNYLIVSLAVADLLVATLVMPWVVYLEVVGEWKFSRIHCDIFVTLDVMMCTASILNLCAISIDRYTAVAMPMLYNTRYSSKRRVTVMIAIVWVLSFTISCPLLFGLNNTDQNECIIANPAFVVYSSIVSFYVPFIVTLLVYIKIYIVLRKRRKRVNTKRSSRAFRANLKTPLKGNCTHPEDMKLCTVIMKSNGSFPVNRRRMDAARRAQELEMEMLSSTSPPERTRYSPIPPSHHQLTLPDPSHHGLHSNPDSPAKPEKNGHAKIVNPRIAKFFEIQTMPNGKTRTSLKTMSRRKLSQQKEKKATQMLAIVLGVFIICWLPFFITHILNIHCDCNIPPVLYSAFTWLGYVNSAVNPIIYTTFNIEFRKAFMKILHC

For experiment [1], the target named is T1, [3H]haloperidol binding, rat limbic forebrain membranes (Rattus norvegicus, UniProt P61169).
T1 construct: striatal and limbic forebrain membranes; from tissue; host or cells: rat limbic forebrain membranes
The experiment in a line: displacement of [3H]haloperidol from rat limbic forebrain membranes. The following applies: Table 1, read-out: Displacement [3H]Haloperidol limbic: approximate KI. An excerpt:
(§1) ^(f) Approximate KI (nM) for displacement of [3Hhaloperidol from rat
(§2) striatal and limbic forebrain membranes.

Experiment [2] has as its target T2, [3H]haloperidol binding, rat striatal membranes (Rattus norvegicus, UniProt P61169).
T2 construct: striatal and limbic forebrain membranes; from tissue; host or cells: rat striatal membranes
The experiment in a line: displacement of [3H]haloperidol from rat striatal membranes. The following applies: Table 1, read-out: Displacement [3H]Haloperidol striatum: approximate KI.
Text: as §1, §2

For the compound `CCN(CC)CCNC(=O)c1cc(Cl)c(N)cc1OC` [Metoclopramide, reference compound], the Ki in experiment [1] and in experiment [2] was 150 nM throughout.
